The list shows a part of the results, in another mix than the full data. Activity calls are given as the source filed them.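 Rule for the calls: active = side scatter shift above 30%; inactive = the rest.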

The experiment is described as follows: inducers of granularity increase in LNCaP cells – cell-based, flow cytometry side scatter, primary screen (AID 795).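 Note: androgen-responsive LNCaP prostate cancer cells in charcoal-stripped serum medium; percent of cells past a gate set so DMSO wells show 10% shift; higher shift means more granular cells and more differentiation.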 The conditions noted are these: LNCaP differentiation, 4 d, at 10 µM, hits give high values.
In the case of `Cc1ccccc1NP(C)(=O)Nc1ccccc1C`, the side scatter shift is inactive: 12%.

As for `CP(=O)(Nc1ccc2c(c1)OCCO2)Oc1ccccc1` (configuration not stated), the side scatter shift was inactive: 9%.

Consider `CN(C)CCOC(=O)C(O)(c1ccccc1)C1CCCCC1` (configuration not stated), for which the side scatter shift was inactive: 9%. In the case of `CP(=O)(Nc1ccccn1)Oc1ccccc1` (configuration not stated), the side scatter shift is inactive: 1%. In the case of `Cc1nc2ccc3ccccc3c2o1.O=[N+]([O-])c1cc([N+](=O)[O-])c(O)c([N+](=O)[O-])c1`, the side scatter shift is inactive: 14%. For the molecule `CP(=S)(Nn1cnnc1)Oc1ccccc1` (configuration not stated), the side scatter shift is inactive: 6%. `Cc1ccc(C)c(NP(C)(=O)Oc2ccccc2)c1` (configuration not stated): the side scatter shift is inactive: 5%.

The record behind these values is PubChem BioAssay AID795 (NMMLSC, 2007).
